# Ab-14 light chain CDR variants: yeast mating affinities

The target is the same throughout: PDVDLGDISGINAS, from the HR2 region of SARS-CoV-2 spike.

Parent: Ab-14, a human scFv built as VH, a (GGGGS)3 linker, VL. Only the CDRs of the light chain vary.
VH: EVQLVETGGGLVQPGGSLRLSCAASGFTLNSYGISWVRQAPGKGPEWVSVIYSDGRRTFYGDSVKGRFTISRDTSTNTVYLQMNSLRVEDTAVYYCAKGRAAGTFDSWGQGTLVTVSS
VL: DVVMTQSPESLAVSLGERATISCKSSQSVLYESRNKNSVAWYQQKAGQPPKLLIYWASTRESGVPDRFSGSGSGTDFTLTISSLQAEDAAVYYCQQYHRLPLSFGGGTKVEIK

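The starting antibody came from a phage panning campaign against this peptide. These sequences belong to a second round, designed from the earlier measurements on random variants of the parent. Group labels follow the data file (Ctrl: baseline library sampled from a position-specific scoring matrix, with some repeated check sequences; En: ensemble of fine-tuned language models; GP: Gaussian process model; HC: hill climbing; Gen: genetic algorithm; Gibbs: Gibbs sampling; a sequence that several methods proposed may carry one label only). In AlphaSeq, yeast of one mating type display the scFv and yeast of the other type display the target. The frequency of each diploid, read from paired DNA barcodes, reflects how well the two displayed proteins bind. Read counts were normalised to the haploid input and turned into Kd by a linear fit to BCL2-family pairs of known affinity, for each replicate. Mating was done six times.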

Variants are written as CDR1, CDR2 and CDR3 of the light chain (limits as in the source). Parent: KSSQSVLYESRNKNSVA, WASTRES, QQYHRLPLS.
Numbers give log10(Kd / nM), so 0 is 1 nM and 3 is 1 µM. Smaller is tighter.
A mean of the replicates is given; it leaves out those without a signal.
Where no diploid with the target was found in that replicate, the entry reads "nd": below detection, most likely a poor binder, though not proof of it.
Entries are sorted by rising average.
The authors averaged sequences with at least three values out of six and counted those with two or fewer as poor binders.
A sequence measured in both rounds can read differently, since the two assays cover different ranges.
Of ten entries with the parent sequence, four were seen in most replicates (averages 0.34 to 2.37), three in one and three in none, so single entries are noisy.
Nonspecific signal, from three strains lacking the peptide, appeared in 4% of pairings of all light chain designs, centred on 2.64 (5% of these signals below 1.59); values are not corrected for it.

CDR-L1 | CDR-L2 | CDR-L3 | group | replicates, log10 nM | mean log10 Kd (nM)
KLPQSVCYESRNKNSVA | NASTRES | QQYHRLPLS | GP_Gen | -0.31 -0.44 -0.49 -0.70 -0.69 -0.49 | -0.52
KVSGSYLLESRNKNSVA | EASTRES | QQYHRLPLS | GP_HC | -0.33 -0.36 -0.45 -0.62 -0.50 -0.32 | -0.43
TISQSHQMESHNKNSVA | DLNVRGS | QQYDRLPLS | En_HC | -0.48 -0.25 -0.62 0.05 -0.67 -0.51 | -0.41
KLSQSVLYESRNKNSVA | HASQRES | QQYHRLPLS | GP_Gen | -0.22 -0.30 -0.20 -0.28 -0.31 -0.12 | -0.24
KSSQSVDYESRNKNSVA | NASTREQ | QQYHRLPLS | GP_Gen | 0.00 -0.10 -0.36 -0.54 -0.34 -0.08 | -0.24
KLMQSTLYESRNQNSVA | NASTRES | QQYHRLPLS | GP_HC | 0.13 -0.21 -0.21 -0.50 -0.06 0.12 | -0.12
NIYQAMHTLMQAKNNVA | DVTNRQK | QQYNRLPLS | En_Gen | 0.12 0.00 -0.34 -0.51 -0.07 0.07 | -0.12
KLSMGVDYGDRNKNSVA | HASTRES | QQYHRLPLS | GP_Gibbs | 0.00 0.12 -0.11 -0.23 -0.17 -0.03 | -0.07
KVSQSCLYESRNKNSVA | EASTRES | QQYHRLPLS | GP_Gen | -0.04 0.06 0.00 -0.20 -0.20 0.16 | -0.04
KLEEWVEYESRNKNSVA | HASTRLS | QQYHRLPLS | GP_Gibbs | 0.03 0.02 0.04 -0.07 -0.05 0.07 | 0.01
VMQMDNDRANDATKAIA | DVTMREK | QQYNRLPLM | En_Gibbs | 0.36 0.06 0.24 0.05 0.05 0.36 | 0.19
KLSQSVLYEDRNFNSVA | NASQRES | QQYHRLPLS | GP_Gen | 0.29 0.44 0.51 0.33 0.24 0.39 | 0.37
KSSQSVSNESRNKNSVA | GASTRES | QQYHRLPLS | Ctrl | 0.30 0.39 0.25 0.42 0.44 0.45 | 0.38
KLSQSVLMESRNSNSVA | NASTRES | QQYHRLPLS | GP_Gen | 0.39 0.41 0.52 0.17 0.40 0.43 | 0.38
KVLQSVVYEGRNKNSVA | HASTRED | QQYHRLPLS | GP_HC | 0.67 0.40 0.12 0.15 0.69 0.54 | 0.43

Second part, the sequence after the result:

replicates, log10 nM | mean log10 Kd (nM) | CDR-L1 | CDR-L2 | CDR-L3 | group
0.60 0.38 0.33 0.62 0.50 0.57 | 0.50 | KVPQSHDYESRNMNSVA | NASERES | QQYHRLPLS | GP_Gibbs
0.45 0.63 0.61 0.31 0.40 0.85 | 0.54 | KYDFSVLEESRNPNSVA | NASTREE | QDYHRLPLS | GP_Gibbs
1.09 0.69 0.45 0.26 0.30 0.88 | 0.61 | MISQVMNTLTRNTNNVA | DLTNRED | QQYFRLPLS | En_Gen
0.97 0.69 0.21 1.09 0.19 0.85 | 0.67 | KLYPSEWYESRMCNSVA | NASVREQ | QQYHRLPLS | GP_Gibbs
1.05 0.62 0.58 0.53 0.74 0.64 | 0.69 | KIELDLTRYNAGYSAIA | HETQKAQ | QQYSRLPLV | En_Gibbs
0.68 0.56 1.31 0.46 0.81 0.56 | 0.73 | TFPQEVMYESHFKNNVA | QTSTREP | QQYDHLPLS | En_HC
0.91 1.44 0.83 1.21 1.13 1.01 | 1.09 | KLYSINGTEKVHGNNVA | EMETRER | QQYNRLPLA | En_Gen
nd nd nd nd 1.13 nd | 1.13 | KSRGPVLYESRNKNSVA | WASTREY | QQYHRLPLS | Ctrl
1.34 1.03 1.17 0.96 1.09 1.22 | 1.14 | TISQMFLGESRARNSVA | QASTRES | QSYDRLPLS | En_HC
1.45 1.33 2.04 1.76 2.05 2.22 | 1.81 | KISMTYRFESQASNSIA | EMTTREE | QSYHRLPLS | En_HC
2.33 0.95 2.24 2.96 1.02 1.81 | 1.88 | IVSQLMLWGTHVKNSIA | EAETRLN | QQYERLPLF | En_Gen
1.68 1.91 1.76 1.78 2.15 2.54 | 1.97 | RFDQTEQEGIQDKNSVA | QGSQSGS | QHYSRLPLS | En_Gibbs
nd nd nd nd nd 2.24 | 2.24 | GSSQSVLFESRNKNSVA | WASTRES | QQYYRHPLS | Ctrl
1.88 2.32 1.83 1.52 3.86 2.07 | 2.25 | KLMMSTLYESRNKNSVA | NASTRES | QQYHRLPLS | GP_HC
2.40 1.96 2.79 nd 3.45 1.96 | 2.51 | TISMSMNWLTFNKDNIA | EESTRED | QQYDRLPLS | En_HC

3 of these entries, quoted again:

| CDR-L1 | CDR-L2 | CDR-L3 | group | replicates, log10 nM | mean log10 Kd (nM) |
|---|---|---|---|---|---|
| RFDQTEQEGIQDKNSVA | QGSQSGS | QHYSRLPLS | En_Gibbs | 1.68 1.91 1.76 1.78 2.15 2.54 | 1.97 |
| TISMSMNWLTFNKDNIA | EESTRED | QQYDRLPLS | En_HC | 2.40 1.96 2.79 nd 3.45 1.96 | 2.51 |
| KLPQSVCYESRNKNSVA | NASTRES | QQYHRLPLS | GP_Gen | -0.31 -0.44 -0.49 -0.70 -0.69 -0.49 | -0.52 |

Values reported by Li et al. 2023, doi:10.1038/s41467-023-39022-2 (FLAb copy).